Reference: patent US11020397B2, “Compounds and their use for reducing uric acid levels” (Acquist LLC, priority 2016, dated 2021)
Read-outs that look alike come from different tables or passages of the source.

Amino acid sequences for entries named in this document (tags omitted). A change or cut given only in a name is not applied to a line headed by its entry.
UniProt Q96S37: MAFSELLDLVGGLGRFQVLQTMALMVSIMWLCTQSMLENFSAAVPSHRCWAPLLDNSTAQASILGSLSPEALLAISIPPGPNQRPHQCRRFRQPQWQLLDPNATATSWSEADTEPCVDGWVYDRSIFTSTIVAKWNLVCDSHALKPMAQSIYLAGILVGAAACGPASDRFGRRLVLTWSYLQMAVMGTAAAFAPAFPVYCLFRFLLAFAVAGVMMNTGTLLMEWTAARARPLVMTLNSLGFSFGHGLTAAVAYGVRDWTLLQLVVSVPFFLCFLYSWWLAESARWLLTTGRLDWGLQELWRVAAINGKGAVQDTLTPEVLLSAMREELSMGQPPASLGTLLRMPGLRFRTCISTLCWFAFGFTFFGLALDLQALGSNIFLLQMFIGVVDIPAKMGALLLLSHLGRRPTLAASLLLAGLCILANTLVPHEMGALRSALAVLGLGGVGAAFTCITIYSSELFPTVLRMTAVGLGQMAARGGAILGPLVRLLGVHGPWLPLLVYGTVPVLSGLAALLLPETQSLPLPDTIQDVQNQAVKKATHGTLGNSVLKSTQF

Target: URAT1 (SLC22A12) (Homo sapiens (Human), UniProt Q96S37)
Conditions: for IC50: read-out: URAT1 IC50, URAT1 assay as described herein, URAT-1/CHO cells, 3H-orotate transport

Row | Structure (SMILES) | URAT1 inhibition, verbal rating (compared to lesinurad) | IC50 [µM] | URAT1 inhibition, verbal rating
1 | CSc1nc(O)c(C(=O)Nc2ccc(-c3c[nH]nn3)cc2OC(F)(F)F)c(=O)[nH]1 [Formula (II3), N-(4-(1H-1,2,3-triazol-4-yl)-2-(trifluoromethoxy)phenyl)-4-hydroxy-2-(methylthio)-6-oxo-1,6-dihydropyrimidine-5-carboxamide] | particularly potent inhibitors of URAT1 compared to lesinurad | 4.9 | –
2 | CSc1nc(O)c(C(=O)Nc2ccc(-c3c[nH]nn3)cc2OC(F)F)c(=O)[nH]1 [Formula (II4), N-(2-(difluoromethoxy)-4-(1H-1,2,3-triazol-4-yl)phenyl)-4-hydroxy-2-(methylthio)-6-oxo-1,6-dihydropyrimidine-5-carboxamide] | particularly potent inhibitors of URAT1 compared to lesinurad | 2.3 | –
3 | CSc1nc(O)c(C(=O)Nc2ccc(-c3c[nH]nn3)cc2C#N)c(=O)[nH]1 [Formula (II5), N-(2-cyano-4-(1H-1,2,3-triazol-4-yl)phenyl)-4-hydroxy-2-(methylthio)-6-oxo-1,6-dihydropyrimidine-5-carboxamide] | particularly potent inhibitors of URAT1 compared to lesinurad | 7.5 | –
4 | CC(C)Sc1nc(O)c(C(=O)Nc2ccc(-c3c[nH]nn3)cc2C(F)(F)F)c(=O)[nH]1 [Formula (II7), N-(4-(1H-1,2,3-Triazol-5-yl)-2-(trifluoromethyl)phenyl)-4-hydroxy-2-(isopropyl-thio)-6-oxo-1,6-dihydropyrimidine-5-carboxamide] | – | > 100 | –
5 | CSc1nc(O)c(C(=O)Nc2ncc(-c3c[nH]nn3)cc2C(F)(F)F)c(=O)[nH]1 [Formula (II8), N-(5-(1H-1,2,3-triazol-4-yl)-3-(trifluoromethyl)pyridin-2-yl)-4-hydroxy-2-(methylthio)-6-oxo-1,6-dihydropyrimidine-5-carboxamide] | – | 19.9 | –
6 | CSc1nc(O)c(C(=O)Nc2ccc3nc(-c4c[nH]nn4)ccc3c2)c(=O)[nH]1 [Formula (II10), N-(2-(1H-1,2,3-triazol-4-yl)quinolin-6-yl)-4-hydroxy-2-(methylthio)-6-oxo-1,6-dihydropyrimidine-5-carboxamide] | – | > 100 | –
7 | CSc1nc(O)c(C(=O)Nc2ccc(-c3c[nH]nn3)c(F)c2F)c(=O)[nH]1 [Formula (IIaa), N-(2,3-difluoro-4-(1H-1,2,3-triazol-4-yl)phenyl)-4,6-dihydroxy-2-(methylthio) pyrimidine-5-carboxamide] | – | > 90 | –
8 | CN(C)CCSc1nc(O)c(C(=O)Nc2ccc(-c3c[nH]nn3)cc2F)c(=O)[nH]1 [Formula (IIbb), 2-((2-(dimethylamino)ethyl)thio)-N-(2-fluoro-4-(1H-1,2,3-triazol-4-yl)phenyl)-4-hydroxy-6-oxo-1,6-dihydropyrimidine-5-carboxamide] | – | > 90 | –
9 | CC(C)Sc1nc(O)c(C(=O)Nc2ccc(-c3c[nH]nn3)cc2)c(=O)[nH]1 [Formula (IIi), N-(4-(1H-1,2,3-triazol-5-yl)phenyl)-4-hydroxy-2-(isopropylthio)-6-oxo-1,6-dihydropyrimidine-5-carboxamide] | – | 1.08 | effectively inhibit URAT1
10 | CSc1nc(O)c(C(=O)Nc2ccc(-c3c[nH]nn3)nc2)c(=O)[nH]1 [Formula (IIii), N-(6-(1H-1,2,3-triazol-4-yl)pyridin-3-yl)-4-hydroxy-2-(methylthio)-6-oxo-1,6-dihydropyrimidine-5-carboxamide] | – | > 40 | –
11 | CCSc1nc(O)c(C(=O)Nc2ccc(-c3c[nH]nn3)cc2)c(=O)[nH]1 [Formula (IIl), N-(4-(1H-1,2,3-triazol-4-yl)phenyl)-2-(ethylthio)-4-hydroxy-6-oxo-1,6-dihydropyrimidine-5-carboxamide] | – | 2.43 | effectively inhibit URAT1
12 | CCSc1nc(O)c(C(=O)Nc2ccc(-c3nn[nH]n3)cc2)c(=O)[nH]1 [Formula (IIp), N-(4-(1H-tetrazol-5-yl)phenyl)-2-(ethylthio)-4-hydroxy-6-oxo-1,6-dihydropyrimidine-5-carboxamide] | – | > 50 | –
13 | CC(C)CSc1nc(O)c(C(=O)Nc2ccc(-c3c[nH]nn3)cc2)c(=O)[nH]1 [Formula (IIq), N-(4-(1H-1,2,3-triazol-4-yl)phenyl)-4-hydroxy-2-(isobutylthio)-6-oxo-1,6-dihydropyrimidine-5-carboxamide] | – | 14.2 | effectively inhibit URAT1
14 | CSc1nc(O)c(C(=O)Nc2ccc(-c3c[nH]nn3)c(F)c2)c(=O)[nH]1 [Formula (IIr), N-(3-Fluoro-4-(1H-1,2,3-triazol-4-yl)phenyl)-4-hydroxy-2-(methylthio)-6-oxo-1,6-dihydropyrimidine-5-carboxamide] | – | 1.85 | effectively inhibit URAT1
15 | CSc1nc(O)c(C(=O)Nc2ccc(-c3c[nH]nn3)cc2F)c(=O)[nH]1 [Formula (IIs), N-(2-Fluoro-4-(1H-1,2,3-triazol-4-yl)phenyl)-4-hydroxy-2-(methylthio)-6-oxo-1,6-dihydropyrimidine-5-carboxamide] | – | > 3.5 | effectively inhibit URAT1
16 | CSc1nc(O)c(C(=O)Nc2c(F)cc(-c3c[nH]nn3)cc2F)c(=O)[nH]1 [Formula (IIt), N-(2,6-Difluoro-4-(1H-1,2,3-triazol-4-yl)phenyl)-4-hydroxy-2-(methylthio)-6-oxo-1,6-dihydropyrimidine-5-carboxamide] | – | 19.9 | –
17 | CC(C)Sc1nc(O)c(C(=O)Nc2ccc(-c3c[nH]nn3)cc2F)c(=O)[nH]1 [Formula (IIv), N-(2-Fluoro-4-(1H-1,2,3-triazol-4-yl)phenyl)-4-hydroxy-2-(isopropylthio)-6-oxo-1,6-dihydropyrimidine-5-carboxamide] | – | 18.5 | –
18 | CC(C)Sc1nc(O)c(C(=O)Nc2ccc(-c3c[nH]nn3)c(F)c2)c(=O)[nH]1 [Formula (IIw), N-(3-Fluoro-4-(1H-1,2,3-triazol-4-yl)phenyl)-4-hydroxy-2-(isopropylthio)-6-oxo-1,6-dihydropyrimidine-5-carboxamide] | – | > 30 | –
19 | CC(C)Sc1nc(O)c(C(=O)Nc2c(F)cc(-c3c[nH]nn3)cc2F)c(=O)[nH]1 [Formula (IIx), N-(2,6-Difluoro-4-(1H-1,2,3-triazol-4-yl)phenyl)-4-hydroxy-2-(isopropylthio)-6-oxo-1,6-dihydropyrimidine-5-carboxamide] | – | ≥ 30 | –
